The results in this text go back to ChEMBL document CHEMBL3044855, “In vitro reactivation of organophosphorus (OP)-inhibited electric eel acetylcholinesterase by novel monoquaternary pyridinium oximes” (2013).

Structures are written as SMILES.

A short description of this data set: Dissociation constant, pKa of the compound.
Regarding `CCCCCCCCCCCOC[n+]1ccc(/C=N/O)cc1.[Cl-]`, the pKa worked out at 8.2. In turn, `CCCCCCCCCCCCOC[n+]1cccc(/C=N/O)c1.[Cl-]` yielded a pKa of 9.17. As for `CCCCCCCOC[n+]1cccc(/C=N/O)c1.[Cl-]`, the figure is 9.24.

`Cc1ccc(COC[n+]2ccc(/C=N/O)cc2)cc1.[Cl-]`: the pKa was 8.23. For the compound `CCCCCCCCCCOC[n+]1ccc(/C=N/O)cc1.[Cl-]`, the pKa was 8.17. For the compound `Cc1ccc(COC[n+]2cccc(/C=N/O)c2)cc1.[Cl-]`, the pKa amounted to 9.14.

For `CCCCCCOC[n+]1cccc(/C=N/O)c1.[Cl-]`, the pKa was 9.27. This pKa and that of the compound before are within 0.2 log units of each other. `CCCCCCCCOC[n+]1ccc(/C=N/O)cc1.[Cl-]`: the pKa is 8.21. As for `CCCCCCCCCOC[n+]1ccc(/C=N/O)cc1.[Cl-]`, the pKa was found to be 8.15. Consider `O/N=C/c1cc[n+](COCc2ccccc2)cc1.[Cl-]`, for which the pKa amounted to 8.25. As for `CCCCCCCCCCCCOC[n+]1ccc(/C=N/O)cc1.[Cl-]`, the figure is 8.23. Regarding `O/N=C/c1ccc[n+](COCc2ccccc2)c1.[Cl-]`, the pKa came out at 9.25. `CCCCCCCCCCOC[n+]1cccc(/C=N/O)c1.[Cl-]` yielded a pKa of 9.25. For `CCCCCCOC[n+]1ccc(/C=N/O)cc1.[Cl-]`, the pKa worked out at 8.2. Compound `CCCCCCCOC[n+]1ccc(/C=N/O)cc1.[Cl-]` gave a pKa of 8.22. The pKa values of the last two compounds are within 0.2 log units of each other. Regarding `CCCCCCCCCCCOC[n+]1cccc(/C=N/O)c1.[Cl-]`, the pKa is 9.23. In turn, `CCCCCCCCCOC[n+]1cccc(/C=N/O)c1.[Cl-]` showed a pKa of 9.41. `CCCCCCCCOC[n+]1cccc(/C=N/O)c1.[Cl-]` displayed a pKa of 9.25. This pKa and that of the compound before are within 0.2 log units of each other.
